Test results: ChEMBL document CHEMBL2440059, “Antiproliferative, antiandrogenic and cytotoxic effects of novel caffeic acid derivatives in LNCaP human androgen-dependent prostate cancer cells” (Bioorg Med Chem, 2013)

System: LNCaP
Assay: Antiandrogenic activity in human LNCAP cells assessed as reduction in DHT-stimulated PSA release after 24 hrs by ELISA
Assay type: functional, cell-based

Row | Structure (SMILES) | inhibition
1 | O=C(/C=C/c1ccc(O)c(O)c1)OCCC1CCCCC1 | Dose-dependent effect
2 | O=C(/C=C/c1ccc(O)c(O)c1)OCCc1ccccc1 [CAFFEIC ACID PHENETHYL ESTER] | Dose-dependent effect
